Reference: ChEMBL document CHEMBL1772943, “Potent, selective, and orally available benzoisothiazolone phosphomannose isomerase inhibitors as probes for congenital disorder of glycosylation Ia” (J Med Chem, 2011)

Biological target: T1, Phosphomannomutase 2 (Homo sapiens, UniProt O15305)
T1 sequence (O15305 whole entry): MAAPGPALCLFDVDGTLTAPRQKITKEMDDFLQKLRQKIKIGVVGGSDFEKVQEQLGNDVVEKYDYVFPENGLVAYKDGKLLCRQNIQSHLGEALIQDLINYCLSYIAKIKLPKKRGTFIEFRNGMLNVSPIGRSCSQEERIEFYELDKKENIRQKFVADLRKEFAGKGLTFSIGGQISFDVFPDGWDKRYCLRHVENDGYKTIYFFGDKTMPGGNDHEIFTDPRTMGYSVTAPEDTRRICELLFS
Test: Inhibition of human purified PMM2

O=c1c2ccccc2sn1-c1ccccc1
IC50: > 20 µM
